The test concerns IL-8. Kind of test: Glucocorticoid transrepression assay, IL-8 inhibition (TR). Format: cell-based. The conditions noted are these: Homo sapiens. The protocol:
Human Lung epithelial cell line NCl-H292 cells were dissociated from stock flask using 0.05% trypsin/0.53 mM EDTA. Cells were suspended in complete medium and counted. Cells were plated in 96-well flat-bottom plates at 20K cells /well in 0.2 ml/well. Plates were incubated for 24-48 hours until cells were between 75-90% confluent. Medium was aspirated and replaced with medium containing various concentrations of steroids or antagonists. After 1 hour incubation at 37°, TNFα (10 ng/ml final concentration in 0.2 ml) was added and the cells incubated overnight. Control wells with and without TNF were included on each plate, as well as wells with TNF in addition to a maximum (10 μM) concentration of dexamethasone. The cell culture medium was sampled and IL-6 and IL-8 cytokine production was measured using the MSD Multi-Spot immunoassay.

For `CC12Cc3cnn(-c4ccc(F)cc4)c3C=C1CCC1C2[C@@H](O)CC2(C)C1CC[C@]2(O)C(=O)CSc1nc2ccccc2c(=O)[nH]1` (some centres unmarked) [Compound 12], the Emax (read-out: IL-8 inhibition (TR) Emax % inhibition) is > 80%. Also, the IC50 (read-out: IL-8 inhibition (TR) IC50) is 0.06 to 20 nM.

The values above are taken from US20120171126A1, “NOVEL [3,2-c] HETEROARYL STEROIDS AS GLUCOCORTICOID RECEPTOR AGONISTS COMPOSITIONS AND USES THEREOF” (priority 2009, published 2012).
